Results on 17 compounds are retold here after patent publication US20050288333A1 (priority 2004, published 2005).

The chains behind the UniProt entries cited, without tags or fusion partners. Residues count along the entry.
UniProt Q05941, 23-502: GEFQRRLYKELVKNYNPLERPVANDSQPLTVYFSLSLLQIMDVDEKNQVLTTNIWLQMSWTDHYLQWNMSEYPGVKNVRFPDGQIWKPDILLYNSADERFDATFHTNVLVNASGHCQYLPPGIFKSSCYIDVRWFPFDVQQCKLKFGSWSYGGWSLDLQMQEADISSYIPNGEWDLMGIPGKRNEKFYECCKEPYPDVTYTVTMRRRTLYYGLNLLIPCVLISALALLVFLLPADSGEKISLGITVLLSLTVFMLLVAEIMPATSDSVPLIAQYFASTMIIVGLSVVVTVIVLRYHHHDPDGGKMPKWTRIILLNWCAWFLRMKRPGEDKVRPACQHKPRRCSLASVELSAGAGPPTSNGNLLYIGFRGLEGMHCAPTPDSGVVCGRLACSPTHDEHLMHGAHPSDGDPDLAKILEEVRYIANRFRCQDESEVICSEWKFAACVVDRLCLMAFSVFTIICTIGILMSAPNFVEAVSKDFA
UniProt P36544, 23-502: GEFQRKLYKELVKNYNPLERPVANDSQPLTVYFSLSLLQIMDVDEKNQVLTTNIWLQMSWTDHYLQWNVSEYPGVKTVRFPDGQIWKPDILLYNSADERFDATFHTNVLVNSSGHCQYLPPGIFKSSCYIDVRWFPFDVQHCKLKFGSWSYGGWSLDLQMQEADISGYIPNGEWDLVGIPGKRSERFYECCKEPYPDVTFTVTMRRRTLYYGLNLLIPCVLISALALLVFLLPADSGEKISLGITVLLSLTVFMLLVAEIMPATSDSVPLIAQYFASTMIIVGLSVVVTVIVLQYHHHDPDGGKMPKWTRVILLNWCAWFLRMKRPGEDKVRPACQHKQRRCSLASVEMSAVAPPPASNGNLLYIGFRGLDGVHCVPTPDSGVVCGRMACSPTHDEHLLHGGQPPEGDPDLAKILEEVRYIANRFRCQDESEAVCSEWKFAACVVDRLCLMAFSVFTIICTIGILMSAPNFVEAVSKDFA

Structures can show the parent of a compound that is named as a salt. Where two headings read alike, the source gives them in different places.

One may read the Ki as a measure of affinity in units of concentration, obtained from inhibition or displacement. Usually EC50 stands for the concentration needed to bring the measured effect to its halfway point.

Experiment [1] addresses T1, α7 nicotinic receptors (Rattus norvegicus, UniProt Q05941). Nature of the experiment: biochemical.
For experiment [2], the target named is T2, human α7 nicotinic receptors (Homo sapiens, UniProt P36544).
T2 construct: expressed in transfected cells; host or cells: Xenopus laevis oocytes
Nature of the experiment: Agonist concentration-response on receptors expressed in X. laevis oocytes. It is filed as cell-based. The settings on record: for Human Receptor Max. Response: apparent efficacy, normalized to ACh control.

In experiment [3] the target is T3, rat α7 nicotinic receptors (Rattus norvegicus, UniProt Q05941).
T3 construct: expressed in transfected cells; host or cells: Xenopus laevis oocytes
The description is as above. It is filed as cell-based. The settings on record: for Rat Receptor Max. Response: apparent efficacy, normalized to ACh control.

Experiment [4] addresses T1, α7 nicotinic receptors. As to conditions: read-out: α7 Ki.
Setting [5] is: 125I-BTX Binding Ki ± S.E.M., rat brain membranes, radioligand 1 nM, mean±S.E.M. of four experiments.
The mark [6] stands for this setting: 125I-BTX Binding Ki(Ion), inhibitory concentration of the ionized form, calculated assuming only the cationic form interacts.
Setting [7] is: calculated EC50 for just the ionized form, read-out: Human Receptor EC50 (Ion), value in parentheses (converted).
Where [8] appears, read: human α7 in X. laevis oocytes, integrated current, read-out: Human Receptor EC50.
Where [9] appears, read: calculated EC50 for just the ionized form, read-out: Rat Receptor EC50 (Ion), value in parentheses (converted).
[10] abbreviates: rat α7 in X. laevis oocytes, integrated current, read-out: Rat Receptor EC50.

On α7 nicotinic receptors [1], `CN(C)c1ccc(C=CC=C2CCCN=C2c2cccnc2)cc1` [DMACA, 3-(4-Dimethylaminocinnamylidene)anabaseine] came in with a Ki of 70 nM.

Take `Clc1ccc(C=C2CCCN=C2c2cccnc2)c(Cl)c1` [GTS-38, 3-(2,4-Dichlorobenzylidene)anabaseine]: the Ki on α7 nicotinic receptors [1] was greater than 10000 nM.

For the compound `Cc1ccc(C=C2CCCN=C2c2cccnc2)cc1` [GTS-48, 3-(4-Methylbenzylidene)anabaseine], the affinity at α7 nicotinic receptors [1], expressed as Ki, was 17000 nM.

`Cc1ccc(C2=NCCCC2)cn1` [GTS-26, 6′-Methylanabaseine] came in with a Ki on α7 nicotinic receptors [1] of 400 nM.

As to `COc1ccc(C=C2CCCN=C2c2cccnc2)c(O)c1` [GTS-51, 3-(2-Hydroxy-4-methoxybenzylidene)anabaseine], the Ki was 317 ± 67 nM at α7 nicotinic receptors [1] (setting [5]) and 105 nM at α7 nicotinic receptors [1] (setting [6]). Further, the “Human Receptor Max. Response” value in experiment [2] stood at 0.53 ± 0.05. The 50% effective concentration (EC50) in experiment [2] (setting [7]) was 670 nM; in experiment [2] (setting [8]), 2100 ± 800 nM; in experiment [3] (setting [9]), 1100 nM; in experiment [3] (setting [10]), 3300 ± 800 nM. In addition, in experiment [3], the “Rat Receptor Max. Response” value was 0.82 ± 0.06.

With `Cc1ncccc1C1=NCCCC1` [GTS-27, 2′-Methylanabaseine], on α7 nicotinic receptors [1], the inhibition constant Ki was greater than 10000 nM.

For the compound `Clc1ccc(C=C2CCCN=C2c2cccnc2)cc1` [GTS-8, 3-(4-Chlorobenzylidene)anabaseine], the Ki on α7 nicotinic receptors [1] was determined as 1100 nM.

With `COc1ccc(C=C2CCC[N+](C)=C2c2cccnc2)c(OC)c1` [GTS-58, 1-Methyl-3-(2,4-djmethoxybenzylidene)anabaseine trifluoroacetate], the Ki on α7 nicotinic receptors [4] is greater than 20000 nM.

As for `COc1cc(O)ccc1C=C1CCCN=C1c1cccnc1` [Compound 4-OH-MBA, 3-(2-Methoxy-4-hydroxybenzylidene)anabaseine], in experiment [3], the “Rat Receptor Max. Response” value is given as 0.77 ± 0.02.

As for `COc1ccc(/C=C2\CCCN=C2c2cccnc2)c(OC)c1` [GTS-21, 3-(2,4-Dimethoxybenzylidene)anabaseine], the Ki on α7 nicotinic receptors [1] (setting [6]) is 81 nM; at α7 nicotinic receptors [1] (Ki for inhibition of iodinated BTX binding calculated from saturation experiments, saturation (Scatchard) experiments), 173 nM. Moreover, the results for the 50% effective concentration (EC50) in experiment [2] (setting [7]), in experiment [3] (setting [9]) and in experiment [3] (setting [10]) were 3700 nM, 1800 nM and 2900 ± 80 nM, respectively.

Regarding `Cc1cc(C)c(C=C2CCCN=C2c2cccnc2)c(C)c1` [GTS-40, 3-(2,46,-Trimethylbenzylidene)anabaseine], the Ki at α7 nicotinic receptors [1] worked out at 1500 nM.

As for “6′-Methyl-3-(2,4-dimethoxybenzylidene)anabaseine [GTS-57]”, the Ki at α7 nicotinic receptors [4] stood at 50 nM.

In turn, `COc1cc(OC)c(C=C2CCCN=C2c2cccnc2)c(OC)c1` [GTS-35, 3-(2,4,6-Trimethoxybenzylidene)anabaseine] showed an inhibition constant (Ki) at α7 nicotinic receptors [1] of 58 nM.

As to `Cc1cncc(C2=NCCCC2)c1` [GTS-60, 5′-Methylanabaseine], the Ki on α7 nicotinic receptors [1] amounted to 80 nM.

Compound `Cc1ccncc1C1=NCCCC1` [GTS-28, 4′-Methylanabaseine] had an inhibition constant Ki on α7 nicotinic receptors [1] greater than 10000 nM.

At α7 nicotinic receptors [1], `COc1ccc(C=C2CCCN=C2c2ccccc2)c(OC)c1` [GTS-63, 2-Phenyl-3-(2,4-dimethoxybenzylidene)-4,5,6-trihydropyridine] yielded a Ki greater than 10000 nM.

With `Oc1ccc(C=C2CCCN=C2c2cccnc2)c(O)c1` [GTS-52, 3-(2,4-Dihydroxybenzylidene)anabaseine], the Ki at α7 nicotinic receptors [1] (setting [5]) is 203 ± 5 nM; at α7 nicotinic receptors [1] (setting [6]), 102 nM. Also, in experiment [2], the “Human Receptor Max. Response” value came out at 0.49 ± 0.02. Besides, the 50% effective concentration (EC50) in experiment [2] (setting [7]) is 1600 nM; in experiment [2] (setting [8]), 3200 ± 500 nM; in experiment [3] (setting [9]) it was 2000 nM; in experiment [3] (setting [10]), 3900 ± 600 nM. In addition, the “Rat Receptor Max. Response” value in experiment [3] turned out to be 0.67 ± 0.03.
